Experimental data as given in patent US20080194482A1, “Selective Apac2 Receptor Peptide Agonists” (priority 2005, published 2008).

The chains behind the UniProt entries cited, without tags or fusion partners. Residues count along the entry.
UniProt P32241, 31-457: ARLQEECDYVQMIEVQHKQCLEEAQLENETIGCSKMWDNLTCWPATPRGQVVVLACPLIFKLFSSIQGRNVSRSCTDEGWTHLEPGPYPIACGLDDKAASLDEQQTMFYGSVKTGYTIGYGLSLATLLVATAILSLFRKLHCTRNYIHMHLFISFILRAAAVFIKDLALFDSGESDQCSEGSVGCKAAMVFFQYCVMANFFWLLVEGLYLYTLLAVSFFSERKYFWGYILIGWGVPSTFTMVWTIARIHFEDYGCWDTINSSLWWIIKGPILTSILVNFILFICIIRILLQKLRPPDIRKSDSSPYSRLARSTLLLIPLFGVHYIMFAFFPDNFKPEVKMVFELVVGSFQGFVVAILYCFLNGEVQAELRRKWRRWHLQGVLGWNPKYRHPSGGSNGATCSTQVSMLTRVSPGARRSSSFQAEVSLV
UniProt P30083, 31-459: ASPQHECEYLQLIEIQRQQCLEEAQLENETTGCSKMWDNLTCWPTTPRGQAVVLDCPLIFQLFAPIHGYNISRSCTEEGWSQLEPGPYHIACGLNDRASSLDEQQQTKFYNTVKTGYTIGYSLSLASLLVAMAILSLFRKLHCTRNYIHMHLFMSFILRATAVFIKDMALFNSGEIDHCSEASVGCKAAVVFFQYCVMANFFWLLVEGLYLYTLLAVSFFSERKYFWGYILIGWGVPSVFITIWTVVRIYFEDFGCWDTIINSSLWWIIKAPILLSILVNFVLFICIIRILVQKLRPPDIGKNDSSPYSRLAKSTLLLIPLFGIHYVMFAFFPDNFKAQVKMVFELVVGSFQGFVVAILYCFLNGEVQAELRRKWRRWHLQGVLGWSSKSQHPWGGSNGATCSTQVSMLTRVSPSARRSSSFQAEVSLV

How the values were obtained:
[1] = target: T1, human VPAC1 (Homo sapiens, UniProt P32241); assay: Filter binding assay, 125I-labeled VIP tracer, VPAC1 membranes
T1 construct: expressed in transfected cells

[2] = target: T2, human PAC1 (Homo sapiens, UniProt P41586); assay: Filter binding assay, 125I-labeled PACAP-27 tracer, PAC1 membranes
T2 construct: expressed in transfected cells
T2 sequence (P41586 21-468): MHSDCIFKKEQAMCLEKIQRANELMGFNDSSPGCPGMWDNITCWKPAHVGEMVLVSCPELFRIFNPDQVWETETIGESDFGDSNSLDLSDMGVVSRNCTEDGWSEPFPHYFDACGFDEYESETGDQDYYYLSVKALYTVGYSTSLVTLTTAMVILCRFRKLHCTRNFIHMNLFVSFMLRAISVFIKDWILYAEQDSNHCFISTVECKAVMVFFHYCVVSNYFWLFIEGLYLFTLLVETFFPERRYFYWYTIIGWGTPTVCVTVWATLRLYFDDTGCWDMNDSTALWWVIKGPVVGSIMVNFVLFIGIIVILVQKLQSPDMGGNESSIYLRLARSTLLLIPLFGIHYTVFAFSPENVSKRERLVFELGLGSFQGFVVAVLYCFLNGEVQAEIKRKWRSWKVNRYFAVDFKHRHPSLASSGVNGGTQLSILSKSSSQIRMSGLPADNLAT

[3] = Rat serum stability (activity remaining, CHO-VPAC2 DiscoveRx read-out); format: in vitro ADME; settings: 10 μM peptide in rat serum, overnight at 37° C. vs 4° C. with aprotinin; estimated by EC50, 4C/EC50, 37C
Experimental: The rat serum is stored at 4° C. until use and is used within two weeks. […] The aliquot is stored with aprotinin at 4° C. The aliquot is stored without aprotinin at 37° C. The aliquots are incubated overnight. […] The plate(s) are washed with cells twice in incubation buffer. The plates are allowed to hold 50 μL incubation media per well for 15 minutes. 50 μL solution per well is transferred to the cells from the plate prepared with 11 serial 5× dilutions of peptide for the 4° C. and 37° C. aliquot for each peptide studied, using the maximal concentrations that are indicated by the primary screen, in duplicate. This step dilutes the peptide concentration by a factor of two. The cells are incubated at room temperature for 30 minutes. […] The cells are incubated on the shaker (300 rpm) for 1 hour. Normal procedure with the DiscoveRx kit is followed. cAMP standards are included in column 12. EC50 values are determined from the cAMP assay data.

[4] = target: T3, rat VPAC2 receptor (Rattus norvegicus, UniProt P35000); assay: DiscoveRx cAMP assay, in vitro potency at rat VPAC2 receptor; format: cell-based
T3 construct: expressed in transfected cells; host or cells: CHO-PO (transient, Lipofectamine)
T3 sequence (P35000 23-437): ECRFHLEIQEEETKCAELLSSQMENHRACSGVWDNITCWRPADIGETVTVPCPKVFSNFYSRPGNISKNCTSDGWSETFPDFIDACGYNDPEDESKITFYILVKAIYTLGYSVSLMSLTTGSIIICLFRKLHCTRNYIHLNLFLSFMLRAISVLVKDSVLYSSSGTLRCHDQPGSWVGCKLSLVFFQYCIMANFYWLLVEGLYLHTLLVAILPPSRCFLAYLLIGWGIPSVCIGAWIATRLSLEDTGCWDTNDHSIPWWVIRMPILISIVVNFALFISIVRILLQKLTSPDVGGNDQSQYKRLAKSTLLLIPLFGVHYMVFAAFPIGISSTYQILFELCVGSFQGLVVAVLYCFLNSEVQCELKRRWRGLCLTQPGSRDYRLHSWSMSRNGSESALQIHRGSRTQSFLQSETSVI
Experimental: (§1) DiscoveRx: CHO-PO cells are transiently transfected with rat VPAC1 or VPAC2 receptor DNA using commercially available transfection reagents (Lipofectamine from Invitrogen). The cells are seeded at a density of 10,000/well in a 96-well plate and are allowed to grow for 3 days in […] culture medium. At day 3, the assay is performed.
(§2) On the day of the experiment, the medium is removed. Also, the cells are washed twice. The cells are incubated in assay buffer plus IBMX for 15 minutes at room temperature. Afterwards, the stimuli are added and are dissolved in assay buffer. The stimuli are present for 30 minutes. Then, the assay buffer is gently removed. The cell lysis reagent of the DiscoveRx cAMP kit is added. Thereafter, the standard protocol for developing the cAMP signal as described by the manufacturer is used (DiscoveRx Inc., USA). EC50 values for cAMP generation are calculated from the raw signal or are based on absolute cAMP levels as determined by a standard curve performed on each plate.
(§3) Results for each agonist are the mean of two independent runs. Rat VPAC1 and VPAC2 results are only generated using the DiscoveRx assay.

[5] = target: T4, human VPAC2 (Homo sapiens, UniProt P41587); assay: Alpha screen cAMP assay, in vitro potency at human VPAC2 receptor; format: cell-based
T4 construct: expressed in transfected cells
T4 sequence (P41587 24-438): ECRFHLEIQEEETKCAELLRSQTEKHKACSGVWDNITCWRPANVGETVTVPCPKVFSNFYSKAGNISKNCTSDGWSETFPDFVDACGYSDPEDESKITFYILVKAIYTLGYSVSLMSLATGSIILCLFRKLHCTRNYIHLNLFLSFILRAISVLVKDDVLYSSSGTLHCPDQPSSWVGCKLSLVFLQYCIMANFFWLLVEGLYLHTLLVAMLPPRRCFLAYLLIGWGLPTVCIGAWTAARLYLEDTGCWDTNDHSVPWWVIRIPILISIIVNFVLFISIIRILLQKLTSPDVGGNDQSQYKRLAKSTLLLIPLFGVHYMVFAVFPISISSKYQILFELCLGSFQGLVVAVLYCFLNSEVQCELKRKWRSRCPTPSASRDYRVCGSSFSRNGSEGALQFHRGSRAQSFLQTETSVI

[6] = target: T5, rat VPAC1 receptor (Rattus norvegicus, UniProt P30083); assay: DiscoveRx cAMP assay, in vitro potency at rat VPAC1 receptor; format: cell-based
T5 construct: expressed in transfected cells; host or cells: CHO-PO (transient, Lipofectamine)
Experimental: as §1, §2, §3

Structure (SMILES)	IC50 [1] [nM]	IC50 [2] [nM]	Rat Serum Stability (estimated purity in % after overnight incub.) [3] [%]	EC50 [4] [nM]	EC50 [5] [nM]	EC50 [6] [nM]
CCCCCC(=O)N[C@@H](Cc1c[nH]cn1)C(=O)N[C@@H](CO)C(=O)N[C@@H](CC(=O)O)C(=O)N[C@@H](C)C(=O)N[C@H](C(=O)N[C@@H](Cc1ccccc1)C(=O)N[C@H](C(=O)N[C@@H](CC(=O)O)C(=O)N[C@@H](CC(N)=O)C(=O)N[C@@H](Cc1ccc(O)cc1)C(=O)N[C@H](C(=O)N[C@@H](CCCNC(=N)N)C(=O)NC(C)(C)C(=O)N[C@@H](CCCNC(=N)N)C(=O)NC(C)(C)C(=O)N[C@@H](CCC(N)=O)C(=O)N[C@H](C(=O)N[C@@H](C)C(=O)N[C@@H](C)C(=O)NC(C)(C)C(=O)N[C@@H](CCCCN)C(=O)N[C@@H](Cc1ccc(O)cc1)C(=O)N[C@@H](CC(C)C)C(=O)N[C@@H](CCC(N)=O)C(=O)N[C@@H](CO)C(=O)N[C@H](C(=O)N[C@@H](CCCCN)C(=O)NC(C)(C)C(=O)N[C@@H](CCCCN)C(=O)NCC(=O)NCC(=O)N1CCC[C@H]1C(=O)N[C@@H](CO)C(=O)N[C@@H](CO)C(=O)NCC(=O)N[C@@H](C)C(=O)N1CCC[C@H]1C(=O)N1CCC[C@H]1C(=O)N1CCC[C@H]1C(=O)N[C@@H](CO)C(=O)O)[C@@H](C)CC)C(C)C)[C@@H](C)O)[C@@H](C)O)C(C)C [Agonist P405]	> 3000	> 25000	79.54	0.04	–	–
CCCCCC(=O)N[C@@H](Cc1c[nH]cn1)C(=O)N[C@@H](CO)C(=O)N[C@@H](CC(=O)O)C(=O)N[C@@H](C)C(=O)N[C@H](C(=O)N[C@@H](Cc1ccccc1)C(=O)N[C@H](C(=O)N[C@@H](CC(=O)O)C(=O)N[C@@H](CCC(N)=O)C(=O)N[C@@H](Cc1ccc(O)cc1)C(=O)N[C@H](C(=O)N[C@@H](CCCNC(=N)N)C(=O)NC(C)(C)C(=O)N[C@@H](CCCNC(=N)N)C(=O)NC(C)(C)C(=O)N[C@@H](CCC(N)=O)C(=O)N[C@H](C(=O)N[C@@H](C)C(=O)N[C@@H](C)C(=O)NC(C)(C)C(=O)N[C@@H](CCCCN)C(=O)N[C@@H](Cc1ccc(O)cc1)C(=O)N[C@@H](CC(C)C)C(=O)N[C@@H](CCC(N)=O)C(=O)N[C@@H](CO)C(=O)N[C@H](C(=O)N[C@@H](CCCCN)C(=O)NC(C)(C)C(=O)N[C@@H](CCCCN)C(=O)NCC(=O)NCC(=O)N1CCC[C@H]1C(=O)N[C@@H](CO)C(=O)N[C@@H](CO)C(=O)NCC(=O)N[C@@H](C)C(=O)N1CCC[C@H]1C(=O)N1CCC[C@H]1C(=O)N1CCC[C@H]1C(=O)N[C@@H](CO)C(=O)O)[C@@H](C)CC)C(C)C)[C@@H](C)O)[C@@H](C)O)C(C)C [Agonist P406]	> 3000	> 25000	89.83	0.04	0.12	–
CCCCCC(=O)N[C@@H](Cc1c[nH]cn1)C(=O)N[C@@H](CO)C(=O)N[C@@H](CC(=O)O)C(=O)N[C@@H](C)C(=O)N[C@H](C(=O)N[C@@H](Cc1ccccc1)C(=O)N[C@H](C(=O)N[C@@H](CC(=O)O)C(=O)N[C@@H](CCC(N)=O)C(=O)N[C@@H](Cc1ccc(O)cc1)C(=O)N[C@H](C(=O)N[C@@H](CCCNC(=N)N)C(=O)NC(C)(C)C(=O)N[C@@H](CCCNC(=N)N)C(=O)NC(C)(C)C(=O)N[C@@H](CCC(N)=O)C(=O)N[C@@H](CC(C)C)C(=O)N[C@@H](C)C(=O)N[C@@H](C)C(=O)NC(C)(C)C(=O)N[C@@H](CCCCN)C(=O)N[C@@H](Cc1ccc(O)cc1)C(=O)N[C@@H](CC(C)C)C(=O)N[C@@H](CCC(N)=O)C(=O)N[C@@H](CO)C(=O)N[C@H](C(=O)N[C@@H](CCCCN)C(=O)NC(C)(C)C(=O)N[C@@H](CCCCN)C(=O)NCC(=O)NCC(=O)N1CCC[C@H]1C(=O)N[C@@H](CO)C(=O)N[C@@H](CO)C(=O)NCC(=O)N[C@@H](C)C(=O)N1CCC[C@H]1C(=O)N1CCC[C@H]1C(=O)N1CCC[C@H]1C(=O)N[C@@H](CO)C(=O)O)[C@@H](C)CC)[C@@H](C)O)[C@@H](C)O)C(C)C [Agonist P407]	–	–	151.54	0.03	0.12	–
CCCCCC(=O)N[C@@H](Cc1c[nH]cn1)C(=O)N[C@@H](CO)C(=O)N[C@@H](CC(=O)O)C(=O)N[C@@H](C)C(=O)N[C@H](C(=O)N[C@@H](Cc1ccccc1)C(=O)N[C@H](C(=O)N[C@@H](CC(=O)O)C(=O)N[C@@H](CCC(N)=O)C(=O)N[C@@H](Cc1ccc(OC)cc1)C(=O)N[C@H](C(=O)N[C@@H](CCCNC(=N)N)C(=O)NC(C)(C)C(=O)N[C@@H](CCCNC(=N)N)C(=O)NC(C)(C)C(=O)N[C@@H](CCC(N)=O)C(=O)N[C@@H](CC(C)C)C(=O)N[C@@H](C)C(=O)N[C@@H](C)C(=O)NC(C)(C)C(=O)N[C@@H](CCCCN)C(=O)N[C@@H](Cc1ccc(O)cc1)C(=O)N[C@@H](CC(C)C)C(=O)N[C@@H](CCC(N)=O)C(=O)N[C@@H](CO)C(=O)N[C@H](C(=O)N[C@@H](CCCCN)C(=O)NC(C)(C)C(=O)N[C@@H](CCCCN)C(=O)NCC(=O)NCC(=O)N1CCC[C@H]1C(=O)N[C@@H](CO)C(=O)N[C@@H](CO)C(=O)NCC(=O)N[C@@H](C)C(=O)N1CCC[C@H]1C(=O)N1CCC[C@H]1C(=O)N1CCC[C@H]1C(=O)N[C@@H](CO)C(=O)O)[C@@H](C)CC)[C@@H](C)O)[C@@H](C)O)C(C)C [Agonist P408]	> 3000	> 25000	142.44	0.04	0.12	0.35
CCCCCC(=O)N[C@@H](Cc1c[nH]cn1)C(=O)N[C@@H](CO)C(=O)N[C@@H](CCC(=O)O)C(=O)N[C@@H](C)C(=O)N[C@H](C(=O)N[C@@H](Cc1ccccc1)C(=O)N[C@H](C(=O)N[C@@H](CCC(=O)O)C(=O)N[C@@H](CCC(N)=O)C(=O)N[C@@H](Cc1ccc(OC)cc1)C(=O)N[C@H](C(=O)N[C@@H](CCCNC(=N)N)C(=O)NC(C)(C)C(=O)N[C@@H](CCCNC(=N)N)C(=O)NC(C)(C)C(=O)N[C@@H](CCC(N)=O)C(=O)N[C@@H](CC(C)C)C(=O)N[C@@H](C)C(=O)N[C@@H](C)C(=O)NC(C)(C)C(=O)N[C@@H](CCCCN)C(=O)N[C@@H](Cc1ccc(O)cc1)C(=O)N[C@@H](CC(C)C)C(=O)N[C@@H](CCC(N)=O)C(=O)N[C@@H](CO)C(=O)N[C@H](C(=O)N[C@@H](CCCCN)C(=O)NC(C)(C)C(=O)N[C@@H](CCCCN)C(=O)NCC(=O)NCC(=O)N1CCC[C@H]1C(=O)N[C@@H](CO)C(=O)N[C@@H](CO)C(=O)NCC(=O)N[C@@H](C)C(=O)N1CCC[C@H]1C(=O)N1CCC[C@H]1C(=O)N1CCC[C@H]1C(=O)N[C@@H](CO)C(=O)O)[C@@H](C)CC)[C@@H](C)O)[C@@H](C)O)C(C)C [Agonist P409]	> 3000	> 25000	–	–	0.19	–
